{
  "sequences": {"note": "The chains behind the UniProt entries cited, without tags or fusion partners.", "UniProt Q9HYN5, entry or part of it": "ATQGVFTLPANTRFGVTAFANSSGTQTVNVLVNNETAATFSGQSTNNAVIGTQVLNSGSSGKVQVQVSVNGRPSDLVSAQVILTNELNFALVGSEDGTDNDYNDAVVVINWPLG"},
  "source": "patent US20250295790A1",
  "about": "“LECTIN-TARGETING CONJUGATES” (Helmholtz-Zentrum für Infektionsforschung GmbH, priority 2021, published 2025)",
  "target": "LecB PAO1 (Pseudomonas aeruginosa, UniProt Q9HYN5)",
  "assay": "biochemical",
  "assay_type": "binding",
  "experimental": "LecB (LecB PAO1 according to Hauck et al. and LecB PA14 according to Sommer et al.): A serial dilution of the test compounds was prepared in TBS/Ca, with 20% DMSO as cosolvent. […] Fluorescence was measured and analysed as for LecA. Bottom and top plateaus were fixed according to the control compound in each assay (1-fucose) and the data was re-analysed with these values fixed. A minimum of three independent measurements on three plates was performed for each inhibitor.",
  "data": [
    {"smiles": "CO[C@H]1O[C@H](CO)[C@@H](O)[C@H](O)[C@@H]1O", "note": "[Me-α-D-Man, methyl-α-D-mannoside, reference compound]", "values": [
      {"measurement": "Ki", "result": "48.6 ± 6.9", "unit": "µM"}
    ]}
  ]
}
